Consider one molecule from patent publication US20230286995A1, “METABOLICALLY STABLE PYRIMIDINYL DIHYDROQUINOXALINONES AS TUBULIN POLYMERIZATION INHIBITORS” (UNIVERSITY OF TENNESSEE RESEARCH FOUNDATION, priority 2022, published 2023).

A word on the IC50: it is the concentration that gives 50% inhibition.

This assay concerns A375, M14, RPMI-7951, MDA-MB-231, MDA-MB-453, MDA-MB-468, PC3 and DU145. Briefly: Cell proliferation inhibition assay (MTS), paclitaxel-sensitive panel. The note with it: Homo sapiens; read-out: average IC50 value on all cancer cell lines tested. The class given is cell-based. Here is the method: Cell proliferation inhibition assay: The cell proliferation inhibitory effects of tested compounds were first determined through MTS assay as previously described. In short, 3000 to 7500 cells were added to a 96-well cell culture plate followed by the treatment of the test compounds (0.1 nM to 3 μM) in quadruplicate after seeding and overnight incubation. After 72 hours of treatment, MTS (Promega) was added to the wells and the absorbance was measured at […] after incubating for 1.5 to 2 h. […] Briefly, A375/TxR cells (1000 cells/well) were treated with growth medium containing 0.5 nM, 1 nM, or 2 nM of 5v and incubated for over 7 days (the incubation medium was changed every 3 days). After fixing and staining with 0.5% crystal violet, the cell colonies were quantified by the Hybrid Counting module of the Keyence BZ-X700 microscope. The assay was performed in triplicate.

For the molecule `CCNc1nc2c(c(N3CC(=O)Nc4cc(OC)ccc43)n1)CCC2` [Compound 5v, 4-(2-(ethylamino)-6,7-dihydro-5H-cyclopenta[d]pyrimidin-4-yl)-7-methoxy-3,4-dihydroquinoxalin-2(1H)-one], the IC50 amounted to 0.5 nM.
